Test results as given in patent US20250090695A1, “IMMUNOSTIMULANT-CYTOTOXIC CONJUGATE COMPOSITION AND METHODS FOR CANCER TREATMENT” (The Research Foundation for the State University of New York, priority 2022, published 2025).

Chains of the proteins cited; added tags and fusions are not shown.
UniProt Q04609, whole entry: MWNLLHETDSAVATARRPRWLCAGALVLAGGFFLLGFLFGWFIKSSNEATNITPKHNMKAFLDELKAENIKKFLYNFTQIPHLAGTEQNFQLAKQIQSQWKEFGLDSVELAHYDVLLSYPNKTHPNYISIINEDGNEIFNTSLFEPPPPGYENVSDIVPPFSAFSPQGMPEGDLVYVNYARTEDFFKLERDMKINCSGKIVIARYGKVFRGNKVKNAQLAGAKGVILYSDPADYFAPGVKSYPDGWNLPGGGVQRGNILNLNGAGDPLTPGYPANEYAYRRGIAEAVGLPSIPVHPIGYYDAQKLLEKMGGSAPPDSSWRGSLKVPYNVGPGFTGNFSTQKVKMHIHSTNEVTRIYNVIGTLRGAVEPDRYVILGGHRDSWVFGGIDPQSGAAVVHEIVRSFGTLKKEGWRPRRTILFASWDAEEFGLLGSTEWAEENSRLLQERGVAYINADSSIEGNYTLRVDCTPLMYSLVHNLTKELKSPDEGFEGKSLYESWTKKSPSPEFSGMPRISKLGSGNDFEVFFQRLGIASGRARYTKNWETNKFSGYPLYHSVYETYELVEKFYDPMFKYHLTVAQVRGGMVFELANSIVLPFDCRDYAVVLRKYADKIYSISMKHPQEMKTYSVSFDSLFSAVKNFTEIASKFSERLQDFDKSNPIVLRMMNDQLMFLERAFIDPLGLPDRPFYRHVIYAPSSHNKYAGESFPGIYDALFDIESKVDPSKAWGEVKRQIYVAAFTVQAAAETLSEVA

Target: PSMA (Homo sapiens, UniProt Q04609)
Assay: hPSMA expression in RM1-PGLS tumors in vivo, PET imaging with 64Cu-PSMA-617 and blocking
Parameters: expressed in transfected cells; host or cells: RM1-PGLS murine prostate tumour cells implanted in C57BL/6J mice
Conditions: 50 nanomole 2-PMPA before 64Cu-PSMA-617; C57BL/6J mice
From the text: PET signal is blocked with the PSMA inhibitor 2-PMPA (50 nanomole) in the right PET imaging scan.
C57BL/6J mice bearing RM1-PGLS tumors (50-135 mm^3) where randomized based on tumor volumes into 2 groups and administered compound intravenously. ^64Cu-PSMA-617 was synthesized according to conventional synthetic methods. (1) Mice in group 1 received 5.0 MBq of 64Cu-PSMA-617 (2 nmol, ^64Cu supplied by the University of Wisconsin in 0.1 M HCl) by intravenously tail-vein catheter. Mice in group 2 received 50 nmol of the PSMA inhibitor, 2-PMPA formulated in sterile PBS pH 7.4 followed by 5.0 MBq of ^64Cu-PSMA-617 (2 nmol). Mice were imaged at 90 min post-injection using Siemens Inveon PET/CT and images were reconstructed using ASIPro software. Region of interest (ROI) analyses on all images were performed using AMIDE with PET imaging results and analyses are shown in FIG. 16.

Compound: O=C(O)CCC(CP(=O)(O)O)C(=O)O (stereo not shown) [2-PMPA]
- PET signal of 64Cu-PSMA-617 in RM1-PGLS tumor: blocked
